{"source": "paper PMC7201918", "about": "(The Journal of Experimental Medicine, 2020)", "key": {"[1]": {"tested_on": "WT and CIS−/− BM common myeloid progenitor cells", "experiment": "Generation of common myeloid progenitors from BM cells in IL-3", "format": "cell-based, mouse", "settings": "IL-3 for 3 d, n = 3 mice"}, "[2]": {"tested_on": "common myeloid progenitors", "settings": "ref Burnham et al., 2013; Matsumoto et al., 1997; Yoshimura et al., 1995; cited from earlier work"}}, "data": [{"molecule": "IL-3: cytokine signaling through the common β chain (protein, UniProt P08700 20-152, looked up) Interleukin-3: APMTQTTPLKTSWVNCSNMIDEIITHLKQPPLPLLDFNNLNGEDQDILMENNLRRPNLEAFNRAVKSLQNASAIESILKNLLPCLPLATAAPTRHPIHIKDGDWNEFRRKLTFYLKTLENAQAQQTTLSLAIF", "values": [{"measurement": "common myeloid progenitor numbers", "setting": "[1]", "result": "greater numbers"}, {"measurement": "Cish expression in common myeloid progenitors", "setting": "[2]", "result": "can induce Cish expression"}]}]}
